Patent US7205002B2, “Method of making, and the use of cytotoxic agents containing elemental selenium” (MCW Research Foundation, Inc., priority 2002, dated 2007)

System: L1210 leukemia cells
Assay: Cytotoxicity of chemically prepared Se(0)-protein conjugates with selenium dioxide control
Conditions: equimolar (up to 30 μM) concentrations

selenium dioxide
Cytotoxicity: not cytotoxic
